Measurements as given in PMC6510822, “Identification of anticancer OATP2B1 substrates by an in vitro triple-fluorescence-based cytotoxicity screen” (Archives of Toxicology, 2019).
Marks after values point to notes of the source that are not given here.

What was measured:
[1] = test system: A431-2B1 cells (OATP2B1 expressing); assay: Fluorescence-based cytotoxicity assay, OATP2B1-expressing A431-2B1 mCh
[2] = test system: Mes-Sa-B1 cells (Pgp overexpressing); assay: Fluorescence-based cytotoxicity assay, Mes-Sa-B1 mOr

Compound | SR (A431-2B1 vs parental A431), screening of DTP Oncology Set IV [1] | SR, co-culture [1] | SR, monoculture [1] | SR (Mes-Sa-B1) [2]
Cc1c(N)nc([C@H](CC(N)=O)NC[C@H](N)C(N)=O)nc1C(=O)N[C@H](C(=O)N[C@H](C)[C@@H](O)[C@H](C)C(=O)N[C@H](C(=O)NCCc1nc(-c2nc(C(=O)NCCC[S+](C)C)cs2)cs1)[C@@H](C)O)[C@@H](OC1OC(CO)C(O)C(O)C1OC1OC(CO)C(O)C(OC(N)=O)C1O)c1cnc[nH]1 (stereo partly drawn) [NSC-125066, Bleomycin] | 10.15 | 9.01^** | 10.9^** | 1.44
C1CN1c1nc(N2CC2)nc(N2CC2)n1 [NSC-9706, Triethylenemelamine] | 7.73 |  |  | 1.3
